scFv variants of Ab-14 (heavy chain) against a SARS-CoV-2 spike peptide

The measurements come from Engelhart et al. 2022 (doi:10.1038/s41597-022-01779-4) through the FLAb antibody collection.

Antigen: PDVDLGDISGINAS, a 14-residue peptide of the SARS-CoV-2 spike HR2 region.

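Phage display of a naive human antibody library on the peptide gave the parent. In library AAYL49, one, two or three CDR residues were substituted; doubles and triples were drawn at random. In AlphaSeq, yeast of one mating type display the scFv and yeast of the other type display the target. The frequency of each diploid, read from paired DNA barcodes, reflects how well the two displayed proteins bind. A regression on co-assayed BCL2-family reference pairs converts the normalised counts of each replicate to an apparent Kd. Mating was done three times.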

Parent scFv Ab-14: VH joined to VL by a (GGGGS)3 linker. Changes lie in the heavy chain CDRs alone.
VH: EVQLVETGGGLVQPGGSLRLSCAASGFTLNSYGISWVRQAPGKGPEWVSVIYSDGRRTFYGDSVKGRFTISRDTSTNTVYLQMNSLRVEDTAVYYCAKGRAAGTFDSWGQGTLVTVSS
VL: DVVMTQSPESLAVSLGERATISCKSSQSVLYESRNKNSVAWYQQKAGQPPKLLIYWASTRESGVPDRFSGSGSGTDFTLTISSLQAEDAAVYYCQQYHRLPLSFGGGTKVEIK

Changes read parent residue, position, new residue, counted from the first residue of the VH shown. All variants listed here change G55 of the VH, counted from its first residue. Numbers give log10(Kd / nM), so 0 is 1 nM and 3 is 1 µM. Smaller is tighter. Replicates are averaged; those with no signal do not enter the mean. An entry "not detected" has no value in the source: the pair was not observed among the diploids in any replicate. This suggests poor binding but is not conclusive.

| changes | log10 Kd (nM), mean | detected |
|---|---|---|
| G55L+R57T+F105A | not detected | 0/3 |
| V50S+G55K+F105M | not detected | 0/3 |
| F27I+S31I+G55T | 3.82 | 1/3 |
| S35H+Y52P+G55E | 3.78 | 1/3 |
| G33D+G55L+Y60C | 3.63 | 2/3 |
| G33Q+I51L+G55A | 4.44 | 1/3 |
| G55D+R56Y | 4.22 | 1/3 |
| N30C+G55A+R57M | not detected | 0/3 |
| Y32E+G55T+G61D | 4.02 | 2/3 |
| V50D+G55R+D106S | not detected | 0/3 |
| G26Q+G55L+T58H | not detected | 0/3 |
| I34Q+G55M+K65Y | not detected | 0/3 |
| Y52M+G55H+R100H | not detected | 0/3 |
| D54G+G55H+Y60M | not detected | 0/3 |
| G55F+R56M+A101P | not detected | 0/3 |
| Y32S+G55W+S107Y | not detected | 0/3 |
| G55D | not detected | 0/3 |
| G55K+T58Q+A102K | not detected | 0/3 |
| S53W+G55T+R100N | not detected | 0/3 |
| S53C+G55K+K65Q | 3.36 | 1/3 |
| G26Q+G55P+D106I | not detected | 0/3 |
| S53H+G55Y+Y60T | not detected | 0/3 |
| I34Q+G55P+A101Q | not detected | 0/3 |
| G55H | 4.12 | 1/3 |
| G55E+F105H+D106P | 3.01 | 1/3 |
| N30Q+G33A+G55K | 3.15 | 1/3 |
| G55V+R57G | 2.73 | 1/3 |
| V50T+G55N+T104W | 4.22 | 1/3 |
| S53N+G55F+G99N | 3.93 | 1/3 |
| G55A+R100P | 4.35 | 1/3 |
| G55Q+R56M+V64N | 3.26 | 1/3 |
| V50P+G55A+A102L | not detected | 0/3 |
| G55N+K65M+F105I | not detected | 0/3 |
| F27H+N30T+G55S | not detected | 0/3 |
| L29T+I34W+G55E | not detected | 0/3 |
| S35Y+G55T+D62F | not detected | 0/3 |
| G55H+R56N+G103S | 4.29 | 1/3 |
| T28I+G55W+S63P | 3.98 | 2/3 |
| N30P+S31C+G55S | 3.78 | 1/3 |
| G55E+T104A+S107A | not detected | 0/3 |
| G55Y+F59M+A102F | not detected | 0/3 |
| Y32V+G55M | not detected | 0/3 |
| G55M | not detected | 0/3 |
| G55L+R56S+R100W | not detected | 0/3 |
| V50T+Y52S+G55S | 5.46 | 2/3 |
| G55E+R56N+D106C | 4.33 | 1/3 |
| G55C+Y60F+A101G | not detected | 0/3 |
| G55F+Y60A+F105G | not detected | 0/3 |
| S31Y+G55S+V64S | not detected | 0/3 |
| S35N+G55Y+R56V | 4.87 | 2/3 |
| G55Q+F59H | 3.60 | 1/3 |
| Y32G+I51R+G55I | not detected | 0/3 |
| G26Y+G55E+G61W | 3.19 | 1/3 |
| V50S+G55T+R57S | 4.00 | 2/3 |
| Y52C+G55S+A102S | 5.46 | 1/3 |
| G55Q+S63Q | not detected | 0/3 |
| S35N+G55L+R100W | not detected | 0/3 |
| S31P+G55C+D62M | not detected | 0/3 |
| V50S+G55I+T104C | not detected | 0/3 |
| S53G+D54P+G55L | not detected | 0/3 |
| G55A+G99P | not detected | 0/3 |
| S53V+G55F+D106Q | not detected | 0/3 |
| T28K+G55K+T58R | not detected | 0/3 |
| S31E+S35V+G55D | 4.17 | 1/3 |
| Y32E+V50M+G55P | 5.17 | 2/3 |
| G55W+D62I+V64L | 4.74 | 2/3 |

Parent in this assay: reference entry 0.65, copy in this library 4.11 (one replicate of three). Background: pairings of library AAYL49 with three empty control strains gave a value in 15% of cases (median 4.06, 5th percentile 2.83). Values in that range, when seen in few replicates, are hard to tell from nonspecific mating.